Assay results as given in the OPERA property sets (Mansouri et al. 2018).
In brackets after ≈: the same amount, converted by molar mass.

conditions: not given

SMILES | logP | solubility [mM] | log10 OH rate constant (cm³/molecule/s)
CC1(C)CN1P(=O)(NC(=O)NC12CC3CC(CC(C3)C1)C2)N1CC1(C)C (stereo not given) | 1.98 | – | –
O=[N+]([O-])c1cccc([N+](=O)[O-])c1 | – | 3.17 (≈ 533 µg/mL) | –
O=[N+]([O-])OCC(CO)O[N+](=O)[O-] (stereo not given) | 0.83 | – | –
Cc1c(O)ccc([N+](=O)[O-])c1[N+](=O)[O-] | 2.86 | – | –
CCCCCCCCOP(C)(=O)OCCCCCCCC | 6.13 | – | –
C1CSCCS1 | 0.77 | 25 (≈ 3000 µg/mL) | –
N#Cc1cc2ccccc2nc1Nc1c([N+](=O)[O-])cc([N+](=O)[O-])cc1C(F)(F)F | 3.88 | – | –
Cc1ncc([N+](=O)[O-])n1CCO[N+](=O)[O-] | 0.81 | – | –
CCOP(C)(=S)OCC | 2.08 | – | –
CC1(C)CC(NC(=O)NP(=O)(N2CC2(C)C)N2CC2(C)C)CC(C)(C)N1O (stereo not given) | 0.48 | – | –
CCCOP(C)(=S)OCCC | 3.26 | – | –
CCCO[N+](=O)[O-] | – | 31.3 (≈ 3290 µg/mL) | –
CN(C)P(C)(=O)N(C)C | -0.67 | – | –
COP(C)(=O)OC | -0.61 | – | –
Cc1c([N+](=O)[O-])cccc1[N+](=O)[O-] | – | 0.999 (≈ 182 µg/mL) | –
CCOP(=O)(CC)OCC | 0.66 | – | –
O=[N+]([O-])OCC(O)CO[N+](=O)[O-] | 0.71 | – | –
CC(C)OP(=O)(F)OC(C)C | 1.17 | – | –
O=[N+]([O-])OCCOCCO[N+](=O)[O-] | 0.98 | 19.9 (≈ 3900 µg/mL) | –
CCO[N+](=O)[O-] | – | – | -12.7
COP(=O)(OC)N(C)C | – | – | -10.5

SMILES | logP | solubility [mM] | log10 OH rate constant (cm³/molecule/s)
CC(C)O[N+](=O)[O-] | – | 34.7 (≈ 3650 µg/mL) | –
CC1(C)CC(NC(=O)NP(=O)(N2CC2(C)C)N2CC2(C)C)C(C)(C)N1O (stereo not given) | 0.51 | – | –
CC1(C)CC(NC(=O)NP(=O)(N2CC2)N2CC2)CC(C)(C)N1 | -0.8 | – | –
CP(=O)(O)O | – | 208 (≈ 20000 µg/mL) | –
Cc1nc(Nc2c([N+](=O)[O-])cc([N+](=O)[O-])cc2C(F)(F)F)c(C#N)cc1C#N | 2.8 | – | –
O=[N+]([O-])c1cc([N+](=O)[O-])c(Nc2ncc(Cl)cc2Cl)c(C(F)(F)F)c1 | 3.47 | – | –
O=C(NC12CC3CC(CC(C3)C1)C2)NP(=O)(N1CC1)N1CC1 | 1.81 | – | –
CC1(C)CC(NC(=O)NP(=O)(N2CC2(C)C)N2CC2(C)C)CC(C)(C)N1 (stereo not given) | 0.55 | – | –
O=[N+]([O-])c1ccc([N+](=O)[O-])c(O)c1 | – | 2.09 (≈ 385 µg/mL) | –
CC1(C)CC(NC(=O)NP(=O)(N2CC2)N2CC2)C(C)(C)N1O (stereo not given) | -0.6 | – | –
CC(C)OP(C)(=O)OC(C)C | 1.03 | 888 (≈ 160000 µg/mL) | –
Cc1ccc([N+](=O)[O-])cc1[N+](=O)[O-] | – | 1.48 (≈ 270 µg/mL) | –
O=[N+]([O-])c1cc(Cl)c(Nc2ncc(C(F)(F)F)cc2Cl)c([N+](=O)[O-])c1 | 3.74 | – | –
O=[N+]([O-])c1cnc(Nc2c(Cl)cc([N+](=O)[O-])cc2[N+](=O)[O-])c(Cl)c1 | 2.6 | – | –
O=[N+]([O-])c1cnc(Nc2c([N+](=O)[O-])cc([N+](=O)[O-])cc2C(F)(F)F)c(Cl)c1 | 2.8 | – | –
CC(C)N(CCO)C(C)C | – | 82.6 (≈ 12000 µg/mL) | –
O=[N+]([O-])N1CN([N+](=O)[O-])CN([N+](=O)[O-])CN([N+](=O)[O-])C1 | 0.16 | – | –
CCCCOP(C)(=O)OCCCC | 3.26 | – | –
Cc1c([N+](=O)[O-])cc([N+](=O)[O-])cc1[N+](=O)[O-] | – | 0.572 (≈ 130 µg/mL) | –
CCCCCOP(C)(=O)OCCCCC | 3.74 | – | –

same assay, conditions: experimental values compiled from the literature

SMILES | logP
O=C1c2cc([N+](=O)[O-])cc([N+](=O)[O-])c2-c2c1cc([N+](=O)[O-])cc2[N+](=O)[O-] | 2.4
